Literature values in patent US7781417B2, “Cyclodextrin dimers and derivatives thereof, methods for preparing them and their use, in particular, for the solubilizing pharmacologically active substances” (Centre National de la Recherche Scientifique, priority 2003, dated 2010).

Settings: WO 95/19994; cited from earlier work

Question: Which “solubility in water of Taxotere on adding the cyclodextrin to its aqueous suspension” value does the source give for “6^I-S-α-maltosyl-6^I-thiocyclomaltoheptaose” here?
Answer: 6500 µg/mL
